Test results from PubChem BioAssay AID720704 (The Scripps Research Institute Molecular Screening Center, 2013).
Only a part is listed here, and it is no random draw. Active and inactive are the calls of the source. Cut-off read from the data, not from the text of the source: active = inhibition above about 11%; inactive = the rest.

Chains of the proteins cited; added tags and fusions are not shown.
UniProt Q01970, whole entry: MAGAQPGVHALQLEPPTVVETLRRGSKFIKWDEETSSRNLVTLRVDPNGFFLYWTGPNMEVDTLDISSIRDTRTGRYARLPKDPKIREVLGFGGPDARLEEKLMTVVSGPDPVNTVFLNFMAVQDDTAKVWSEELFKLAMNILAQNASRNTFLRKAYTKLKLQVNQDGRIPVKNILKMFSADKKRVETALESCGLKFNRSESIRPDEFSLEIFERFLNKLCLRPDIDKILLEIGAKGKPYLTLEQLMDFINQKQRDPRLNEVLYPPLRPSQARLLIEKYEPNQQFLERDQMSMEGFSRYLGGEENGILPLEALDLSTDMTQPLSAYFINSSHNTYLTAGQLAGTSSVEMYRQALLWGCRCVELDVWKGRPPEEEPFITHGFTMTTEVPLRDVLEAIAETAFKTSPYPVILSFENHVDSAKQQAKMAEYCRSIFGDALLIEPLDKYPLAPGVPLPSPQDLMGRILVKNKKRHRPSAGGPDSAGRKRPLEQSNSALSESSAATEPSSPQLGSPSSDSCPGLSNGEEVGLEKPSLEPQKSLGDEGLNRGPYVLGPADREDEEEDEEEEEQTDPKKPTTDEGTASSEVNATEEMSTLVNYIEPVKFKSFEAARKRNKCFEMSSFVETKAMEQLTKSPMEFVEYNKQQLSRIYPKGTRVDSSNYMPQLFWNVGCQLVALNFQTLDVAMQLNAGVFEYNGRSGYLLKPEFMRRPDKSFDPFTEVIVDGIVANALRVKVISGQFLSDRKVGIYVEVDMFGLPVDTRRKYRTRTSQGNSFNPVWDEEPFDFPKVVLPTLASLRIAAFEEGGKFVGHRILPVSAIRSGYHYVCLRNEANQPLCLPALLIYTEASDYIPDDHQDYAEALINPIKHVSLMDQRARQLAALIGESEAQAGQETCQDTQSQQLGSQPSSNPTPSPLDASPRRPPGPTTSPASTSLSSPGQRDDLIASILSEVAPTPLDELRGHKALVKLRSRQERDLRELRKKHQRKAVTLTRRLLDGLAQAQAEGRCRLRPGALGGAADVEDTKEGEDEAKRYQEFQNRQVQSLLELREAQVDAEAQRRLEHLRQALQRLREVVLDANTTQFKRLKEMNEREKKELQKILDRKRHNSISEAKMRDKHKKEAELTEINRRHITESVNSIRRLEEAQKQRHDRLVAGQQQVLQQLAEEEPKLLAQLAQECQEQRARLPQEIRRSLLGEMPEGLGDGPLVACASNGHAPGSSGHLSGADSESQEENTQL

Target: 1-phosphatidylinositol 4,5-bisphosphate phosphodiesterase beta-3 (Homo sapiens) (UniProt Q01970)
Assay: human PLC-beta3 inhibitors, primary screen, biochemical, fluorescence (AID 720704);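 note: 0% = median of compound wells on plate and 100% = full blocker control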
Details: Purified PLC-beta3, fluorogenic substrate, at 12.2 µM, hits give high values

SMILES	inhibition
CCC(=O)N(c1ccccc1)C1(COC)CCN(CCn2nnn(CC)c2=O)CC1	inactive: -0.59%
CCC(=O)N(c1ccccc1)C1(COC)CCN(CCc2cccs2)CC1	inactive: 0.1%
